Measured values from patent US20220233503A1, “METHODS OF TREATING SEPSIS WITH SYNAPTIC VESICLE 2A AND/OR 2B BINDING CHEMICAL ENTITIES” (INSTITUT PASTEUR, priority 2016, published 2022).

How the values were obtained:
[1] = system: c-fos; test: Density of c-fos positive neurons in brain areas after sepsis; type: in vivo; conditions: septic mice vs placebo, at 1-16 as printed, p<0.05
Protocol: Cecal Ligature and puncture. Animals who underwent CLP presented a higher density of neurons expressing c-fos in their nuclei 6 hours after sepsis induction in the central nuclei of the amygdala (8 vs. 3×10^-4.mm^-3, p<0.05). The expression of c-Fos peaked at H6 and decreased to normal values 24 hours after sepsis. C-fos expression pattern in the different brain areas is modified by levetiracetam administration. Levetiracetam lowered specifically c-fos expression in the central amygdala (CeA) at 1-16 (p<0.05).

[2] = system: Caspase 3; test: Caspase 3 cleavage and apoptotic cell count in brain after sepsis; type: in vivo; conditions: septic mice, caspase 3 immunohistochemistry cell count

CC[C@@H](C(N)=O)N1CCCC1=O (single isomer, unassigned) [levetiracetam]
c-fos expression in the central amygdala (CeA) [1]: lowered | number of apoptotic cell [2]: without modification
